{
  "source": "patent US6521751B1",
  "about": "“Recombinant nucleic acid sequences and methods for determining both genotoxicity and mutagenicity of a sample and the kinetics of the genotoxicity” (Vlaamse Instelling voor Technologisch Onderzoek (VITO), priority 1998, dated 2003)",
  "key": {"S. typhimurium": {"system": "S. typhimurium", "conditions": "cited from earlier work; for AMES (result): Ames test, Table 3; for MINIMAL DETECTED CONCENTRATION (MDC): AMES, literature values, pos/neg where MDC could not be calculated"}, "[1]": {"system": "TA 98 and TA104 strains containing pMOL1067 or pMOL1068", "assay": "Genotoxicity tests with hybrid lux strains, final outcome (Table 3)"}, "E. coli (sfiA-lacZ)": {"system": "E. coli (sfiA-lacZ)", "conditions": "SOS chromotest, cited from earlier work; for SOS (result): Table 3; for MINIMAL DETECTED CONCENTRATION (MDC): literature values"}, "[2]": {"system": "S. typhimurium TA104 containing pMOL890", "assay": "Luminescence genotoxicity test, sfiA-lux fusion"}, "[3]": {"system": "S. typhimurium TA98 containing pMOL890", "assay": "Luminescence genotoxicity test, sfiA-lux fusion"}, "[4]": {"system": "S. typhimurium TA104 containing pMOL1066", "assay": "Luminescence genotoxicity test, recN1-2 lux fusion"}, "[5]": {"system": "S. typhimurium TA104 containing pMOL1067", "assay": "Luminescence genotoxicity test, recN1-3 lux fusion"}, "[6]": {"system": "S. typhimurium TA98 containing pMOL1067", "assay": "Luminescence genotoxicity test, recN1-3 lux fusion"}, "[7]": {"system": "S. typhimurium TA104 containing pMOL1068", "assay": "Luminescence genotoxicity test, recN2-4 lux fusion"}, "[8]": {"system": "S. typhimurium TA98 containing pMOL1068", "assay": "Luminescence genotoxicity test, recN2-4 lux fusion"}, "[9]": {"system": "S. typhimurium TA104 containing pMOL1069", "assay": "Luminescence genotoxicity test, recN3-4 lux fusion"}},
  "data": [
    {"molecule": "SeO2", "values": [
      {"measurement": "AMES (result)", "setting": "S. typhimurium", "value": "pos"},
      {"measurement": "OUTCOME (genotoxicity, final outcome)", "setting": "[1]", "value": "pos"}
    ]},
    {"molecule": "O=C1c2cc([N+](=O)[O-])cc([N+](=O)[O-])c2-c2c1cc([N+](=O)[O-])cc2[N+](=O)[O-]", "values": [
      {"measurement": "SOS (result)", "setting": "E. coli (sfiA-lacZ)", "value": "pos"},
      {"measurement": "MINIMAL DETECTED CONCENTRATION (MDC)", "setting": "E. coli (sfiA-lacZ)", "value": 0.24, "unit": "nmol/assay"},
      {"measurement": "MINIMAL DETECTED CONCENTRATION (MDC)", "setting": "S. typhimurium", "value": 0.001, "unit": "nmol/assay"},
      {"measurement": "AMES (result)", "setting": "S. typhimurium", "value": "pos"},
      {"measurement": "MINIMAL DETECTED CONCENTRATION (MDC)", "setting": "[2]", "value": 0.011, "unit": "nmol/assay"},
      {"measurement": "MINIMAL DETECTED CONCENTRATION (MDC)", "setting": "[3]", "value": 0.056, "unit": "nmol/assay"},
      {"measurement": "MINIMAL DETECTED CONCENTRATION (MDC)", "setting": "[4]", "value": 0.022, "unit": "nmol/assay"},
      {"measurement": "MINIMAL DETECTED CONCENTRATION (MDC)", "setting": "[5]", "value": 0.011, "unit": "nmol/assay"},
      {"measurement": "MINIMAL DETECTED CONCENTRATION (MDC)", "setting": "[6]", "value": 0.022, "unit": "nmol/assay"},
      {"measurement": "MINIMAL DETECTED CONCENTRATION (MDC)", "setting": "[7]", "value": 0.022, "unit": "nmol/assay"},
      {"measurement": "MINIMAL DETECTED CONCENTRATION (MDC)", "setting": "[8]", "value": 0.011, "unit": "nmol/assay"},
      {"measurement": "MINIMAL DETECTED CONCENTRATION (MDC)", "setting": "[9]", "value": 0.011, "unit": "nmol/assay"},
      {"measurement": "OUTCOME (genotoxicity, final outcome)", "setting": "[1]", "value": "pos"}
    ]},
    {"molecule": "K2Cr2O7", "values": [
      {"measurement": "SOS (result)", "setting": "E. coli (sfiA-lacZ)", "value": "pos"},
      {"measurement": "MINIMAL DETECTED CONCENTRATION (MDC)", "setting": "E. coli (sfiA-lacZ)", "value": 136, "unit": "nmol/assay"},
      {"measurement": "MINIMAL DETECTED CONCENTRATION (MDC)", "setting": "S. typhimurium", "value": 91, "unit": "nmol/assay"},
      {"measurement": "AMES (result)", "setting": "S. typhimurium", "value": "pos"},
      {"measurement": "MINIMAL DETECTED CONCENTRATION (MDC)", "setting": "[2]", "value": 2.7, "unit": "nmol/assay"},
      {"measurement": "MINIMAL DETECTED CONCENTRATION (MDC)", "setting": "[3]", "value": 2.7, "unit": "nmol/assay"},
      {"measurement": "MINIMAL DETECTED CONCENTRATION (MDC)", "setting": "[4]", "value": 21.8, "unit": "nmol/assay"},
      {"measurement": "MINIMAL DETECTED CONCENTRATION (MDC)", "setting": "[5]", "value": 5.4, "unit": "nmol/assay"},
      {"measurement": "MINIMAL DETECTED CONCENTRATION (MDC)", "setting": "[6]", "value": 5.4, "unit": "nmol/assay"},
      {"measurement": "MINIMAL DETECTED CONCENTRATION (MDC)", "setting": "[7]", "value": 1.4, "unit": "nmol/assay"},
      {"measurement": "MINIMAL DETECTED CONCENTRATION (MDC)", "setting": "[8]", "value": 1.4, "unit": "nmol/assay"},
      {"measurement": "MINIMAL DETECTED CONCENTRATION (MDC)", "setting": "[9]", "value": 10.9, "unit": "nmol/assay"},
      {"measurement": "OUTCOME (genotoxicity, final outcome)", "setting": "[1]", "value": "pos"}
    ]}
  ]
}
